Laboratory results: patent publication US7629355B2 (priority 2003, dated 2009)

Amino acid sequences for entries named in this document (tags omitted).
UniProt P35372, whole entry: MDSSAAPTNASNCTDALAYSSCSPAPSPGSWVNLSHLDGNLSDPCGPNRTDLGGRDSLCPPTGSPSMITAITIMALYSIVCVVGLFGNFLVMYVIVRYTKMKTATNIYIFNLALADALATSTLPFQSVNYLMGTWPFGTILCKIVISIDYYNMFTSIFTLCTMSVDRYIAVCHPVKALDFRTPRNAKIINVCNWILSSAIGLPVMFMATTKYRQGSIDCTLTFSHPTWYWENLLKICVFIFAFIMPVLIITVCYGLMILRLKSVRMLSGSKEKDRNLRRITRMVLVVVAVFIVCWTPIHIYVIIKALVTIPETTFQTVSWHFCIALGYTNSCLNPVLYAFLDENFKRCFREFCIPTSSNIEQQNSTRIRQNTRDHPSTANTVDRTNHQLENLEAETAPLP

What was measured:
δ receptor = biological target: T1, δ receptor (Homo sapiens, UniProt P41143); format: biochemical
T1 construct: expressed in transfected cells; host or cells: CHO cells

μ receptor = μ receptor (Homo sapiens, UniProt P35372); format: biochemical

Substance: (−)SKF 10,047
- EC50 (δ receptor): 9.4 ± 2.3 nM
- δ % Stim (δ receptor): 70 ± 9%
- EC50 (μ receptor): > 10000 nM
